Molecular target: human EGFR on HT-29 cells (human) (UniProt P00533)
Test: cell-based or functional assay

## BEAT EGFR/CD3 antibody (bispecific antibody)
  EC50 of T cell redirected killing of HT-29 cells (RDL-MTS): 0.0706 nM
